Reference: patent publication US20080206201A1

Test system: tumor cells that have a degree of resistance to the virus treatment
Assay: Cell killing by virus and prodrug, Giemsa staining
Conditions: virus MOI of 0.001 on day 2; doxorubicin or HMR1826 at 1 μM on day 3; Giemsa on day 8

Compound | cell killing / toxicity to the cells
doxorubicin-glucuronide | not toxic to the cells
COc1cccc2c1C(=O)c1c(O)c3c(c(O)c1C2=O)C[C@@](O)(C(=O)CO)C[C@@H]3O[C@H]1C[C@H](N)[C@H](O)[C@H](C)O1 | kills the cells
